In PubChem BioAssay AID1645855 (Buhrlage Lab, Dana-Farber Cancer Institute and Novartis …, 2021):
The list shows a part of the results, in another mix than the full data. The source made the active and inactive calls. Cut-off read from the data, not from the text of the source: active = inhibition above about 30%; inactive = the rest.

The chains behind the UniProt entries cited, without tags or fusion partners.
UniProt A8MUK1, whole entry: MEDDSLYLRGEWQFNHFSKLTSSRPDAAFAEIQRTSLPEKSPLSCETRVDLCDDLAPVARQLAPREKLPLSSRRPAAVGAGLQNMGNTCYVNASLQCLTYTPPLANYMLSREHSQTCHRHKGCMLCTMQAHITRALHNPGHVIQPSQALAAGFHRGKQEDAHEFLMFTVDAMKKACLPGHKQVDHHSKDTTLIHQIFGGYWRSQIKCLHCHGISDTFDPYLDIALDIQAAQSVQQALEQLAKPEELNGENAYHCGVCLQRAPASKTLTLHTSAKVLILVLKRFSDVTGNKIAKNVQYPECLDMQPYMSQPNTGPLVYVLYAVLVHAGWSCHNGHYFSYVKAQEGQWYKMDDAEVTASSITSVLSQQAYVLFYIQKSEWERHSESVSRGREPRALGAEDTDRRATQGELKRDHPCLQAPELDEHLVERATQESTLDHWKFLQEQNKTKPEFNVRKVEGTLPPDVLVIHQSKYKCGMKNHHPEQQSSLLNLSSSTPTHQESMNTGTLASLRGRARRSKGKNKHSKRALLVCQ

What follows are molecules tested against Ubiquitin carboxyl-terminal hydrolase 17-like protein 5 (Homo sapiens) (UniProt A8MUK1) (assay: inhibitors of human USP17 deubiquitinase (AID 1645855)). Details: purified USP17, Ub-rhodamine cleavage fluorescence, 3 h; at 50 µM; stronger effect = higher value.

Row | SMILES | inhibition
1 | CN(C)c1ccc(C(=O)NCC2(N3CCCCC3)CCCCC2)cc1 | inactive: -0.484%
2 | N#Cc1ccc(C(=O)NCC2(N3CCCCC3)CCCCC2)cc1 | inactive: -38.7%
3 | Cc1cc(C(=O)NCC2(N3CCOCC3)CCCCC2)c2ccccc2n1 | inactive: 12.9%
4 | Cc1ccccc1C(=O)NCC1(N2CCOCC2)CCCCC1 | inactive: -4.62%
5 | O=C(NCC1(N2CCCCC2)CCCCC1)c1ccc2ncsc2c1 | inactive: -1.39%
6 | O=C(NCC1(N2CCOCC2)CCCCC1)c1ccccc1Cl | inactive: -25.3%
7 | O=C(NCC1(N2CCCCC2)CCCCC1)c1ccc(F)cc1 | inactive: -51.1%
8 | CC1CN(CCc2ccccc2)CCC1=O (stereo not drawn) | inactive: -3.09%
